Article PMC6226112 (Clinical and Translational Science, 2018)
Several values for one entry are separate records, joined by “and”; a condition that tells them apart may be missing. Equal values may be shown once. Read-outs that look alike come from different tables or passages of the source.

Key:
[1] = in vivo
[2] = in vivo; remark: listed apart in the source

Substance: buprenorphine
- AUC0-∞, GM [1]: 38.4 ng·h/mL
- Apparent terminal T½, GM [1]: 37.39 h and 39.59 h
- Cmax, GM [1]: 3.79 ng/mL and 3.57 ng/mL
- Tmax, median [1]: 1.51 h and 1.49 h
- AUC0-∞, GM ([1]; po): 37.6 ng·h/mL
- AUC0-∞/D, GM [2]: 4.65 ng·h/mL/mg and 4.57 ng·h/mL/mg
- Apparent terminal T½, GM [2]: 10.71 h and 13.43 h
- Cmax/D GMR (BUP/NAL + GZR/BUP/NAL alone) [2]: 0.90
- Cmax/D, GM [2]: 0.802 ng/mL/mg and 0.722 ng/mL/mg
- Tmax, median [2]: 1.99 h and 2.01 h
